Results on one compound are retold here after patent US10710986B2, “PD-1/PD-L1 inhibitors” (Gilead Sciences, Inc., priority 2018, dated 2020).

For the data set the following is noted: all doses, entire study.

Like-named read-outs stand apart in the source and are kept apart here.

As for `COc1nc(-c2cccc(-c3cccc(-c4cnc(CNC[C@@H]5CCC(=O)N5)c(OC)n4)c3Cl)c2Cl)cnc1CNC[C@@H]1CCC(=O)N1` [compound 139], the “tolerability, effect on body weight” value is, setting by setting: (listed as Compound 139) “well tolerated”; (listed as compound 139) “well-tolerated”.
